Data published in publication PMC12836348, “Alanine Mutagenesis Identifies Specific Amino Acids of Nemertide Alpha‑1 Activity and Its Binding to Target Receptors” (Journal of Natural Products, 2025).

Amino acid sequences for entries named in this document (tags omitted). Chains listed by the source or under a name are the forms on record and can include a tag or linker.
UniProt P08510, with tags, fused parts or gaps DEL6-46: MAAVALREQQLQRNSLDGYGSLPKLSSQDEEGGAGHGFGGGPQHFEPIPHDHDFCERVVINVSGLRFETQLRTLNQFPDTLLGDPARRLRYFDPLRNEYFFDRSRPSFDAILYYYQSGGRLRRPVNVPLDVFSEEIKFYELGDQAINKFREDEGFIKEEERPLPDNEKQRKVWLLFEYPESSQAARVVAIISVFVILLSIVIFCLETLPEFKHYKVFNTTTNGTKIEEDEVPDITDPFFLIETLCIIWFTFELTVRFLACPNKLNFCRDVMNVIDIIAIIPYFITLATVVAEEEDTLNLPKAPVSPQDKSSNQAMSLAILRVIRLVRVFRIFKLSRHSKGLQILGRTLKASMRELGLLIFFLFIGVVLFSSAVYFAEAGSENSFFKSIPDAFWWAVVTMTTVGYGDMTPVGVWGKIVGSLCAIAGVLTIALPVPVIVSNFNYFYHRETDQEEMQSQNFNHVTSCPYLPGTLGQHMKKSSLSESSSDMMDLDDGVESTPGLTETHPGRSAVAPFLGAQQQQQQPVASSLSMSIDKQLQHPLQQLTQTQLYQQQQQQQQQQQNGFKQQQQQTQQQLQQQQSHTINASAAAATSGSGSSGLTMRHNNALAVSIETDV

Key:
Assay type in all cases: cell-based
Set-up in all cases: key: “+” means tested and produced effect; “–“ means tested but no effect
Kv1.1 = assay: Ion channel panel, Kv1.1; settings: S12A at 5 μM; Xenopus oocytes, n ≥ 3
Description: (§1) To assess the concentration–response relationships, data were fitted with the Hill equation: y = 100/[1 + (EC50/[toxin])^ h ], where y is the amplitude of the toxin-induced effect (y = I 30 ms/I peak where I 30 ms is the current value at 30 ms in the presence of toxin and I peak is the peak current amplitude in control conditions), EC50 is the toxin concentration at half-maximal efficacy, [toxin] is the toxin concentration, and h is the Hill coefficient. Potassium and calcium currents were evoked by a 500 ms depolarization to the voltage corresponding to the maximal activation of the channels in control conditions from a holding potential of −90 mV. Elicited currents were sampled at 1 kHz and filtered at 0.5 kHz. […] ASIC1a currents were measured in ND96 solutions at a pH of 7.4 and 4.5, at a holding potential of −70 mV during 400 s, and the data were filtered at 20 Hz. EnaC currents were measured by clamping oocytes at a holding potential of −60 mV and perfusing with low- (1 mM) and high- (96 mM) sodium ND96. Opioid currents were measured by clamping the potential to −70 mV and changing the perfusion solution from ND96 to high-potassium (HK) solution composed of 96 mM KCl, 2 mM NaCl, 1 mM MgCl2, 1.8 mM CaCl2, and 5 mM HEPES, with a final pH of 7.5. […] TRPV1 and TRPA1 currents were continuously monitored in a perfusing ND96 solution, following a protocol at −90 mV for 400 s. […]

Kv7.1 = assay: Ion channel panel, Kv7.1; settings: S12A at 5 μM; Xenopus oocytes, n ≥ 3
Description: as §1

Kv10.1 = assay: Ion channel panel, Kv10.1; settings: S12A at 5 μM; Xenopus oocytes, n ≥ 3
Description: as §1

Shaker IR = Shaker IR (Drosophila melanogaster, UniProt P08510, DEL6-46); assay: Ion channel panel, Shaker IR; settings: S12A at 5 μM; Xenopus oocytes, n ≥ 3
Description: as §1

αβδε = assay: Ion channel panel, nAChR αβδε; settings: S12A at 5 μM, oocytes at −70 mV, 5 min incubation, n ≥ 3
Description: as §1

ENaC = assay: Ion channel panel, ENaC; settings: S12A at 5 μM; −60 mV, low and high sodium ND96, n ≥ 3
Description: as §1

CC[C@H](C)[C@@H]1NC(=O)[C@@H](NC(=O)CN)CSSC[C@@H]2NC(=O)[C@@H]3CSSC[C@@H](C(=O)N[C@@H](CC(N)=O)C(=O)N4C[C@H](O)C[C@H]4C(=O)N4C[C@H](O)C[C@H]4C(=O)N[C@@H](CC(N)=O)C(=O)N[C@@H](CCC(N)=O)C(=O)O)NC(=O)[C@H](CCCCN)NC(=O)[C@H](Cc4ccccc4)NC(=O)[C@H](CC(N)=O)NC(=O)[C@H](Cc4c[nH]c5ccccc45)NC(=O)CNC(=O)[C@H](CSSC[C@H](NC(=O)[C@H](Cc4ccccc4)NC(=O)[C@H](CO)NC(=O)CNC(=O)[C@H]([C@@H](C)O)NC(=O)[C@H](C)NC1=O)C(=O)N[C@@H]([C@@H](C)O)C(=O)N[C@@H](CC(C)C)C(=O)N[C@@H](C)C(=O)N[C@@H](CCCCN)C(=O)NCC(=O)N3)NC(=O)[C@H](CC(N)=O)NC(=O)[C@H](CCCCN)NC(=O)[C@H]([C@@H](C)O)NC2=O [Peptide S12A]
–: effect on Kv1.1 (Kv1.1) | effect on Kv7.1 (Kv7.1) | effect on Kv10.1 (Kv10.1) | effect on Shaker IR (Shaker IR) | effect on αβδε (αβδε) | effect on ENaC (ENaC)
